The values below come from patent US20060160789A1 (priority 2005, published 2006).

Read-outs that look alike come from different tables or passages of the source.

The test system of assay [1] is rats. As to conditions: cited from earlier work.
The test system of assay [2] is patients hospitalized for a laparotomy in the context of digestive surgery. As to conditions: groups 4 vs 3, per-operative 20 mg nefopam hydrochloride, Mann-Whitney test.

As to `CNC1(c2ccccc2Cl)CCCCC1=O` (stereo not drawn), the “acute tolerance to alfentanil” value in assay [1] was “reduces, but without getting rid of”.

Regarding `CN1CCOC(c2ccccc2)c2ccccc2C1` (stereo not drawn) [nefopam], the figures for the “over-consumption (variation) of morphine titration, high-dose vs low-dose remifentanil group” value in assay [2] and in assay [2] (listed as nefopam hydrochloride) were “not significant” and “statistically non-significant”, respectively.
